Experiments:
[1] = test system: human artery wall cell cocultures; assay: LDL oxidation by human artery wall cell cocultures (lipid hydroperoxides); assay type: cell-based; conditions: re-isolated, then cocultures 8 hrs
Description: The wells of the microtiter plates were treated with 0.1% gelatin at 37° C. overnight. HASMC were added at a confluent density of 1×10^5 cells/cm^2. Cells were cultured for 2 d at which time they had covered the entire surface of the well and had produced a substantial amount of extracellular matrix. HAEC were subsequently added at 2×10^5 cells/cm^2 and were allowed to grow forming a complete monolayer of confluent HAEC in 2 d. In all experiments, HAEC and autologous HASMC (from the same donor) were used at passage levels of four to six.
In general, the cocultures were treated with native LDL (250 μg/ml) in the absence or presence of HDL for 8 h. The supernatants were collected and used for determination of lipid hydroperoxide levels. The cocultures were subsequently washed and fresh culture medium 199 (M199) without any additions was added and incubated for an additional 8 hrs. This allowed the collection of monocyte chemotactic activity released by the cells as a result of stimulation by the oxidized LDL. At the end of incubation, the supernatants were collected from cocultures, diluted 40-fold, and assayed for monocyte chemotactic activity. […] The number of migrated monocytes was determined microscopically and expressed as the mean±SD of 12 standardized high power fields counted in quadruple wells.
Statistical significance was determined by model 1 ANOVA. […]

C57BL/6 mice = assay: Injection into mice, LDL isolated and tested on human artery wall cocultures; conditions: 100 μg per animal, tail vein; LDL 3 to 6 hours (apo A-I) or 6 hours (apo A-II) after injection

| Substance | oxidation by artery wall cells of LDL pre-incubated with the agent [1] | resistance of mouse LDL to oxidation by human artery wall cells after injection (C57BL/6 mice) |
| --- | --- | --- |
| DWL KAF YDK VAE KLK EAF PDW LKA FYD KVA EKL KEA F (DWLKAFYDKVAEKLKEAFPDWLKAFYDKVAEKLKEAF; Synthetic apo A-I peptide mimetic) [37 pA] | resistant to oxidation by the artery wall cells | – |
| apo A-I: Human apo A-I from Sigma, major apolipoprotein of HDL; infused into humans as apo A-I/phosphatidylcholine discs | – | resistant to oxidation by human artery wall cells |
| apo A-II: Human apo A-II obtained from Sigma | – | did not render the mouse LDL resistant to oxidation |

— US7250304B2, “Functional assay of high-density lipoprotein” (The Regents of the University of California, priority 2000, dated 2007)
